Source: patent US10501452B2, “Lactam compound derivative and application thereof” (NHWA PHARMA. CORPORATION, priority 2015, dated 2019)

Tests used:
[1] = test system: MK-801 induced high activity in mice; experiment: MK-801 induced high activity
[2] = test system: conditioned avoidance response in rats; experiment: animal or person; type: in vivo; settings: Rattus norvegicus, po, 1 h, read-out: Rat CAR ED50 (mg/kg)
Protocol: […] of SD rats, male.
Firstly, training the rats with shuttle box:
(1) The rats were allowed for adaption for five minutes;
(2) Conditioned stimulus (CS, light and noise) were started and lasted for 20 s, and at the tenth second, unconditioned stimulus (US, 1.5 mA electric shock) was performed and lasted for 10 s;
(3) Training was conducted 30 times per day for 9 days. The interval between two trainings was set randomly ranged from 20 to 30 s;
(4) Observation indicators:
The animal ran to another compartment during the conditioning stimulus was recorded as “avoidance”;
Animals ran to another compartment during the electric shock was recorded as “escape”;
Grouping of the qualified rats: the qualified rats were divided into negative control group, positive drug groups of each dosage, and compound groups of each dosage according to the principle of randomization, 8 in each group.
CAR Assay: A CAR assay was performed 1 hour after intragastric administration. The method was the same as the CAR training. The observation indicators were the number of avoidances, the number of escapes, and the number of escape failures.
Statistical Data Processing: Assay data are presented as mean±standard deviation (Mean±SD), the comparison was performed by a combination of one-way ANOVA with post-hoc LSD. The ED50 was calculated using the probit method.

in vivo = settings: both, Kunming, mouse, po

Compound | ED50 ([1]; Mus musculus, po, read-out: MK-801 induced high activity (ED50, po, mg/kg)) | improvement of MK-801 induced high activity (in words) ([1]; mice, compared with risperidone) | ED50 [2] | ED50 (in vivo)
CN1CCc2ccc(OCCCN3CCC(c4noc5cc(F)ccc45)CC3)cc2C1=O [Compound 5, 7-(3-(4-(6-fluorobenzo[d]isoxazol-3-yl)piperidin-1-yl)propoxy)-2-methyl-3,4-dihydroisoquinolin-1(2H)-one] | 0.04 mg/kg | significantly improve |  | 
Cc1nc2n(c(=O)c1CCN1CCC(c3noc4cc(F)ccc34)CC1)CCCC2 [risperidone, reference compound] |  |  | 0.66 mg/kg | 0.97 mg/kg
